# What was measured:
# [1] = test system: H3K4me3 and H3K27me3 levels in MCF-7 cells; conditions: Western blot, 72 h
# KDM1A (LSD1) = KDM1A (LSD1) (Homo sapiens, UniProt O60341); test: KDM cell-free assay (AlphaScreen, BPS Bioscience); conditions: at 0.5 and 10 μM
structure (smiles),measurement,setting,value
"Cc1c(O)c(=O)ccn1C [DFP, Deferiprone]",H3K4me3 and H3K27me3 levels,[1],dose-dependent upregulation
same,effect on the activity of KDM1A,KDM1A (LSD1),no effect
